This passage reports fluorescence, % of Rose Bengal results from PubChem BioAssay (Tox21).

Several values for one entry are separate records, joined by “and”; a condition that tells them apart may be missing. Equal values may be shown once. Only a part is listed here, and it is no random draw. Activity calls are given as the source filed them. The call rests on the fitted dose curve; in most records, active means well fitted curve in the direction sought with a large enough effect in the repeat runs; inconclusive means weak or mixed curves; inactive means flat fitted curve, though single readings scatter.
On the % scale 0 is the no-effect control and ±100 the full control effect.

The first experiment in a line: qHTS assay to test for compound auto fluorescence at 590 nm (red) in HepG2 cell free culture (AID 720684). The conditions noted are these: cell-free medium autofluorescence, red 540/590 nm; at 46 µM (top of the series). An excerpt: U.S. Tox21 Program National Center for Advancing Translational Sciences [NCATS] NIH Chemical Genomics Center [NCGC] U.S. Environmental Protection Agency [EPA] National Institutes of Environmental Health Sciences [NIEHS] National Toxicology Program [NTP] U.S. Food and Drug Administration [FDA] Tox21 Assay Overview: Compound auto fluorescence often interferes with screening of the compound library against various biological targets and signaling pathways. Some of these compounds may have fluorophoric properties. Such properties may interfere with the assay outputs resulting in false positives and/or negatives. To decrease such complications and ensure the compound activities are relevant in terms of biological response, the Tox21 10K compound library was screened for auto fluorescence. From the fluorophores used as reporter signals in our screening assays, the auto fluorescence equivalencies of compounds against three fluorophores have been evaluated: Triamterene, Fluorescein and Rose Bengal sodium for blue, green and red fluorescence, respectively. […] This assay includes the red fluorescence data.
Tox21 Assay Protocol Summary: 5 uL of culture medium (MEM containing 10% FBS) per well was dispensed into black wall/clear bottom 1536-well plates using a Multidrop Combi Dispenser (ThermoFisher Scientific, Waltham, MA). After 23 nL compound or DMSO vehicle was transferred into assay plate by a pintool work station (Kalypsys, San Diego, CA), fluorescence intensities in the assay plates were measured by an Envision (PerkinElmer, Shelton, CT) plate reader using three labels for measuring blue, green and red fluorescence at […] 460, 535 and 590nm respectively.
For the molecule `NC(=O)Nc1ccc([As](=O)(O)O)cc1`, the fluorescence, % of Rose Bengal is inactive: 0.438%.

Staying with this experiment, now noted: cell-free medium autofluorescence, red 540/590 nm; at 91.3 µM (top of the series).
On to `NC(=O)Nc1ccc([As](=O)(O)O)cc1`, for which the fluorescence, % of Rose Bengal is inactive: 0.0175%.

The same experiment, now with this note: cell-free medium autofluorescence, red 540/590 nm; at 91.3 µM (top of the series) unless noted.
With `CN(C(=O)Cc1ccccc1)[C@H]1CC[C@@]2(CCCO2)C[C@@H]1N1CCCC1`, the fluorescence, % of Rose Bengal is inactive: -0.0136% [at 46 µM].

Turning to `CN(C(=O)Cc1ccc(Cl)c(Cl)c1)[C@H]1CC[C@@]2(CCCO2)C[C@@H]1N1CCCC1`, the fluorescence, % of Rose Bengal is inactive: -0.276% [at 46 µM].

With `O=C1C2CC=CCC2C(=O)N1SC(Cl)(Cl)C(Cl)Cl` (stereo not drawn), the fluorescence, % of Rose Bengal was inactive: -0.0006% and inactive: -0.0481%.

Take `O=[N+]([O-])c1ccc(S(=O)(=O)O)c([N+](=O)[O-])c1`: the fluorescence, % of Rose Bengal is inactive: 0.13%.

On to `CCCCCCCCCCCCCC[P+](CCCCCC)(CCCCCC)CCCCCC`, for which the fluorescence, % of Rose Bengal was inactive: -0.101%.

With `ClP(Cl)c1ccccc1`, the fluorescence, % of Rose Bengal was inactive: -0.166%.

On to `CCNC(C)Cc1ccc2c(c1)OCO2` (stereo not drawn), for which the fluorescence, % of Rose Bengal was inactive: 0.0116% [at 95.7 µM].

In the case of `COP(=S)(Cl)OC`, the fluorescence, % of Rose Bengal is inactive: -0.05%.

Consider `O=P(Cl)(Cl)c1ccccc1`, for which the fluorescence, % of Rose Bengal was inactive: -0.0973%.

Take `O=P(Cl)(Oc1ccccc1)Oc1ccccc1`: the fluorescence, % of Rose Bengal is inactive: -0.316%.

For the molecule `CCCCO[P+](=O)OCCCC`, the fluorescence, % of Rose Bengal is inactive: -0.636% and inactive: -0.0014%.

On to `COC(=O)Cl`, for which the fluorescence, % of Rose Bengal was inactive: 0.057%.

`CCCCC(CC)CO[P+](=O)OCC(CC)CCCC` (stereo not drawn): the fluorescence, % of Rose Bengal is inactive: -0.131%.

`O=[As]c1ccccc1` (stereo not drawn): the fluorescence, % of Rose Bengal was inactive: 0.0046%.

For `CC(C)CCCCCCCOP(OCCCCCCCC(C)C)Oc1ccccc1`, the fluorescence, % of Rose Bengal is inactive: -0.0683%.

With `Cc1cc([N+](=O)[O-])cc([N+](=O)[O-])c1O`, the fluorescence, % of Rose Bengal was inactive: 0.0943% and inactive: -1.23%.

For `O=C(OC1CN2CCC1CC2)c1ccccc1` (stereo not drawn), the fluorescence, % of Rose Bengal was inactive: -0.0942% [at 46 µM].

With `N#CSc1ccc([N+](=O)[O-])cc1[N+](=O)[O-]`, the fluorescence, % of Rose Bengal was inactive: 0.0253%.

For the molecule `Cc1cc([N+](=O)[O-])c(O)c([N+](=O)[O-])c1`, the fluorescence, % of Rose Bengal is inactive: 0.0416%.

`O=[p+]1oc2ccccc2c2ccccc21` (stereo not drawn): the fluorescence, % of Rose Bengal is inactive: -0.0388%.

On to `CCOC(=O)Cl`, for which the fluorescence, % of Rose Bengal is inactive: -0.007%.

`CN(C(=O)Cc1cccc2occc12)[C@H]1CC[C@@]2(CCCO2)C[C@@H]1N1CCCC1`: the fluorescence, % of Rose Bengal is inactive: 0.449%.

With `CCOP(=S)(CC)Sc1ccccc1` (stereo not drawn), the fluorescence, % of Rose Bengal was inactive: -0.0561%.

`CN(N=O)C(=N)N[N+](=O)[O-]`: the fluorescence, % of Rose Bengal was inactive: -0.281%.

Take `O=[P+](Oc1ccccc1)Oc1ccccc1`: the fluorescence, % of Rose Bengal was inactive: 0.25%.

As to `CC(C)OP(=S)(OC(C)C)SCCNS(=O)(=O)c1ccccc1`, the fluorescence, % of Rose Bengal was inactive: 0.0527%.
